Test [1] has as its target C-C chemokine receptor type 8 (Homo sapiens, UniProt P51685). Briefly: Antagonist activity at human CCR8 expressed in CHOK1 cells assessed as inhibition in CCL1-induced beta-arrestin 2 recruitment at 20 uM incubated for 30 mins followed by CCL1 addition and measured after 90 or 180 mins by pathhunter beta-arrestin assay relative to control. Format: cell-based. The procedure, abridged: (§1)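 PathHunter beta-arrestin recruitment, antagonist mode, run at DiscoverX. Cells seeded and held at 37 °C, then preincubated with test sample for 30 min at 37 °C or room temperature (1% vehicle). Agonist then added at EC80 for 90 or 180 min. […] IC50 comes from concentration–response runs in the same format.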

Amino acid sequences for entries named in this document (tags omitted). A change or cut given only in a name is not applied to a line headed by its entry.
UniProt P51685, whole entry: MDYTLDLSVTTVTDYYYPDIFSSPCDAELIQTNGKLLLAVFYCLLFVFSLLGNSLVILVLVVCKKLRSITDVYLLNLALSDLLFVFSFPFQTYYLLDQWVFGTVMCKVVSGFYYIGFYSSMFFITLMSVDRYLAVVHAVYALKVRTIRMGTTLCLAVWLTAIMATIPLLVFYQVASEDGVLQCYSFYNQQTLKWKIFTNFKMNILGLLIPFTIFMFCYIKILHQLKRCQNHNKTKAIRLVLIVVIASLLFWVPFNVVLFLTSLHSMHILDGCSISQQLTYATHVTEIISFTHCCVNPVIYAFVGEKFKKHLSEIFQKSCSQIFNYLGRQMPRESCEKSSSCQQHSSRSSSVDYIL
UniProt P08173, whole entry: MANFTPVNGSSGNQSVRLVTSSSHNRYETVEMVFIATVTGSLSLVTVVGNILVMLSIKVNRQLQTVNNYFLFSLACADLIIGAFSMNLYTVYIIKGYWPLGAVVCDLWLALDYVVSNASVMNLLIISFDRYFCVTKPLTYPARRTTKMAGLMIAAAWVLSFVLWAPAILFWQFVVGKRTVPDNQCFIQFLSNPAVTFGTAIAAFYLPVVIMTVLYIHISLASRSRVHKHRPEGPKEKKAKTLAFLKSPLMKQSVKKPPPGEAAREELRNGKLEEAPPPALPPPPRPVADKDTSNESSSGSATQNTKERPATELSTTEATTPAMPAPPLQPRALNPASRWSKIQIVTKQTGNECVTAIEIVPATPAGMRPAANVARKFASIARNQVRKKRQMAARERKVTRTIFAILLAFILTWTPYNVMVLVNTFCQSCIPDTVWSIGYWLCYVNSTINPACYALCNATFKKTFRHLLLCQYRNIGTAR
UniProt P21554, whole entry: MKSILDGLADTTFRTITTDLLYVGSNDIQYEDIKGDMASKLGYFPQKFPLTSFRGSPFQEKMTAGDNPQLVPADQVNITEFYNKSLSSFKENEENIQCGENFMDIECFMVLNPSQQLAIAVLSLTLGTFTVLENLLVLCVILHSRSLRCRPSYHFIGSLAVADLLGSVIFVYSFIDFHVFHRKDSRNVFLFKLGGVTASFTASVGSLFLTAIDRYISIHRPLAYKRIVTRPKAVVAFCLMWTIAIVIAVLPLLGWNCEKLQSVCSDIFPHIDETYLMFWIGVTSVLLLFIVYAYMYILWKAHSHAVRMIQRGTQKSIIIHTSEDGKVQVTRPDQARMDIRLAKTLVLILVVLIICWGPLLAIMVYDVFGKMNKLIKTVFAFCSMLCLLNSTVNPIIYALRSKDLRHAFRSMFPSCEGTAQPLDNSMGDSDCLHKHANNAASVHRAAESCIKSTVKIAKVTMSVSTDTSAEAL
UniProt P34972, whole entry: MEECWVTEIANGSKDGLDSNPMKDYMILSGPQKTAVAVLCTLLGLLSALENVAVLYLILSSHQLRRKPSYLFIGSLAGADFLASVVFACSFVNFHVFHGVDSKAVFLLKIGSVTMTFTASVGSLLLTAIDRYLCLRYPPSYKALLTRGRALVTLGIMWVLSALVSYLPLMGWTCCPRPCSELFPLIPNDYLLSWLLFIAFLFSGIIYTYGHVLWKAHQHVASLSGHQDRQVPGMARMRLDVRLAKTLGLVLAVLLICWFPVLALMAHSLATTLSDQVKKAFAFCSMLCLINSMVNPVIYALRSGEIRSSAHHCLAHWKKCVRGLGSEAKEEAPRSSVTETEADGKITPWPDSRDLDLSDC
UniProt P61073, whole entry: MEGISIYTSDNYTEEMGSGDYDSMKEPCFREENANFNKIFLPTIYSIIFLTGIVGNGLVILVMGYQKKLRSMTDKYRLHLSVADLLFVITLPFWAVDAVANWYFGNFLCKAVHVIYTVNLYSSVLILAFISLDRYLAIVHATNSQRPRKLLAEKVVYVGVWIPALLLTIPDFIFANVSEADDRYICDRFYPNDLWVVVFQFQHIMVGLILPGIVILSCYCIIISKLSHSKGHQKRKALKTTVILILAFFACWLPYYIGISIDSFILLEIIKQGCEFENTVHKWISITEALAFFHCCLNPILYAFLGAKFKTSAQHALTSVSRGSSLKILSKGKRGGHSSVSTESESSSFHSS
UniProt P14416, whole entry: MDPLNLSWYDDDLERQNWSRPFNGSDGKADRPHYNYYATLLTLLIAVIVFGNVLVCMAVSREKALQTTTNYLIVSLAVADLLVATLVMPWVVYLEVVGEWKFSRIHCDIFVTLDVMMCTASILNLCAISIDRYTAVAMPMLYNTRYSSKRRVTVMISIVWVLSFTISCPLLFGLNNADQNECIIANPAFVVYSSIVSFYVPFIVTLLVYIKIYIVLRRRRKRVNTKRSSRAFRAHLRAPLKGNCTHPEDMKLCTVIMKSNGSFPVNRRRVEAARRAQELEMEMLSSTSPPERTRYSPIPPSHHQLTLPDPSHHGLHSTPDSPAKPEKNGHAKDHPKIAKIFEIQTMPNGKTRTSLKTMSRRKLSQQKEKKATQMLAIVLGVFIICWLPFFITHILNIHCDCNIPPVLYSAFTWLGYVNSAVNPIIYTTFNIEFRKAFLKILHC
UniProt O43614, whole entry: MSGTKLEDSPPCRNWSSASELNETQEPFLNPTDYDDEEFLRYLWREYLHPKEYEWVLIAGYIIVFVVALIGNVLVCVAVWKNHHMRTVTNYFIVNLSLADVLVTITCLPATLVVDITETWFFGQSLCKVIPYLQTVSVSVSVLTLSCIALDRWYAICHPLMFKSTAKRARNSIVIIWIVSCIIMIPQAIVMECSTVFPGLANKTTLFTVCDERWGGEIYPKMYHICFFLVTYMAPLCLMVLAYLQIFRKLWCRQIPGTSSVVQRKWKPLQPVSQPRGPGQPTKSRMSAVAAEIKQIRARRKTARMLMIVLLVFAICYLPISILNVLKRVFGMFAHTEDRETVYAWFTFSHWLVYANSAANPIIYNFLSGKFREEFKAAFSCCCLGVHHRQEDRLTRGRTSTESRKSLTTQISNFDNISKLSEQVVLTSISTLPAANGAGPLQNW
UniProt P43119: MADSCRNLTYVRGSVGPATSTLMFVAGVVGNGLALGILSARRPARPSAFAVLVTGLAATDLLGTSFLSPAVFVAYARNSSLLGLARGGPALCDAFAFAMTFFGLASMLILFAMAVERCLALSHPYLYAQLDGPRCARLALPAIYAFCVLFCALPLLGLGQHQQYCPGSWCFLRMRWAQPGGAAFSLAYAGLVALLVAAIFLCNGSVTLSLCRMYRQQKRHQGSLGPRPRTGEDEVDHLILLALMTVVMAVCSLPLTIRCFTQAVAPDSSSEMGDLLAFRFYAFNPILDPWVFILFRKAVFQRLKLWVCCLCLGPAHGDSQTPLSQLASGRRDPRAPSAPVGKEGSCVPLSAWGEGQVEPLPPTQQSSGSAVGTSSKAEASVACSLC
UniProt P35367, whole entry: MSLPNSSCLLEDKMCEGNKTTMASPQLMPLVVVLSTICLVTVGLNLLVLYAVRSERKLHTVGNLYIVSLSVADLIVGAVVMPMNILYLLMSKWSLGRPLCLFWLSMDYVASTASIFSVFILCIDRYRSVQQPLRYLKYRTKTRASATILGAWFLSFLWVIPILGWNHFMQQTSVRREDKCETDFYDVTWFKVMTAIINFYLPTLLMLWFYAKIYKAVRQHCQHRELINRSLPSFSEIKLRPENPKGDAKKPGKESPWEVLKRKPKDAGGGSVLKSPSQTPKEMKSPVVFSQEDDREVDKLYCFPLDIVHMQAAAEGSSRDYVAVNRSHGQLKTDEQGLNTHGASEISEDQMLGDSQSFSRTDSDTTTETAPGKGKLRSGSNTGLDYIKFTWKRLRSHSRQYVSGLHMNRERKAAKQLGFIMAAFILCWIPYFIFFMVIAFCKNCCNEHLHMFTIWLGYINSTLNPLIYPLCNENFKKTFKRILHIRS

Test [2] has as its target Muscarinic acetylcholine receptor M4 (Homo sapiens, UniProt P08173). Briefly: Antagonist activity at human Gs/Gi/o-coupled CHRM4 expressed in CHOK1 cells assessed as inhibition in acetylcholine-induced beta-arrestin 2 recruitment at 20 uM incubated for 30 mins followed by acetylcholine addition and measured after 90 or 180 mins by pathhunter beta-arrestin assay relative to control. It is filed as cell-based. The procedure, abridged:
as §1
(Arrestin recruitment assays detect the binding of arrestin to an activated receptor.)

Another test addresses Cannabinoid receptor 1 (Homo sapiens, UniProt P21554). The test can be described thus: Antagonist activity at human Gi/o-coupled CNR1 expressed in CHOK1 cells assessed as inhibition in CP55940-induced beta-arrestin 2 recruitment at 20 uM incubated for 30 mins followed by CP55940 addition and measured after 90 or 180 mins by pathhunter beta-arrestin assay relative to control. Format: cell-based. The procedure, abridged: as §1

A further test deals with Cannabinoid receptor 2 (Homo sapiens, UniProt P34972). Briefly: Antagonist activity at human Gi/o-coupled CNR2 expressed in CHOK1 cells assessed as inhibition in CP55940-induced beta-arrestin 2 recruitment at 20 uM incubated for 30 mins followed by CP55940 addition and measured after 90 or 180 mins by pathhunter beta-arrestin assay relative to control. Format: cell-based. The procedure, abridged:
as §1

Test [3] deals with C-X-C chemokine receptor type 4 (Homo sapiens) (UniProt P61073). The test can be described thus: Antagonist activity at human Gi/o-coupled CXCR4 expressed in mouse C2C12 cells assessed as inhibition in CXCL12-induced beta-arrestin 2 recruitment at 20 uM incubated for 30 mins followed by CXCL12 addition and measured after 90 or 180 mins by pathhunter beta-arrestin assay relative to control. Format: cell-based. The procedure, abridged:
as §1

Test [4] has as its target D(2) dopamine receptor (Homo sapiens) (UniProt P14416). Briefly: Antagonist activity at human Gi/o-coupled DRD2L expressed in CHOK1 cells assessed as inhibition in dopamine-induced beta-arrestin 2 recruitment at 20 uM incubated for 30 mins followed by dopamine addition and measured after 90 or 180 mins by pathhunter beta-arrestin assay relative to control. Format: cell-based. The procedure, abridged: as §1

For test [5], the target named is T1, Glucose-dependent insulinotropic receptor (Homo sapiens) (UniProt Q8TDV5).
T1 sequence (whole entry): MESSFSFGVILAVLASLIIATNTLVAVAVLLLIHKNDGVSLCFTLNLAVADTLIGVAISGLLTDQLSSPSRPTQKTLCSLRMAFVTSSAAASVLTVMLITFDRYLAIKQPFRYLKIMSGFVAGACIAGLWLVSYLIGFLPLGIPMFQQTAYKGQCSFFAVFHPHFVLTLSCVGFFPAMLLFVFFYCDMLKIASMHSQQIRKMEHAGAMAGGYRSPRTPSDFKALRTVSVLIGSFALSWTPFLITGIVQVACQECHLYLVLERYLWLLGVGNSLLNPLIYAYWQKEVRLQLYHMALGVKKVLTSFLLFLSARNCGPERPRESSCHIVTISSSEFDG
Briefly: Antagonist activity at human GPR119 assessed as inhibition in oleoylethanolamide-induced beta-arrestin 2 recruitment at 20 uM incubated for 30 mins followed by oleoylethanolamide addition and measured after 90 or 180 mins by pathhunter beta-arrestin assay relative to control. Summed up:
as §1

A further test addresses Orexin receptor type 2 (Homo sapiens, UniProt O43614). Briefly: Antagonist activity at human Gq-coupled HCRTR2 expressed in CHOK1 cells assessed as inhibition in Orexin A-induced beta-arrestin 2 recruitment at 20 uM incubated for 30 mins followed by Orexin A addition and measured after 90 or 180 mins by pathhunter beta-arrestin assay relative to control. It is filed as cell-based. The procedure, abridged: as §1

Test [6] concerns the target T2, Neuropeptide S receptor (Homo sapiens) (UniProt Q6W5P4).
T2 sequence (whole entry): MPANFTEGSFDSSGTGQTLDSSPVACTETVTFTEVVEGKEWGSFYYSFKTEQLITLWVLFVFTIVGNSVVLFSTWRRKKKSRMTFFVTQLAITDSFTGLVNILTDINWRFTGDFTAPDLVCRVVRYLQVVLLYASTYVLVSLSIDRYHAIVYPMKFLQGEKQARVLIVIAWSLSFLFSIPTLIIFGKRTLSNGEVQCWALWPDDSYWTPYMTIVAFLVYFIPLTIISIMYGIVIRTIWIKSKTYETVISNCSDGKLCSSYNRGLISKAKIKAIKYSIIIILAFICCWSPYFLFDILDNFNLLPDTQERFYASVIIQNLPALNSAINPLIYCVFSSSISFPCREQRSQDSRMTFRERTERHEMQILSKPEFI
Briefly: Antagonist activity at human Gq-coupled NPSR1b expressed in human U2OS cells assessed as inhibition in neuropeptide S-induced beta-arrestin 2 recruitment at 20 uM incubated for 30 mins followed by neuropeptide S addition and measured after 90 or 180 mins by pathhunter beta-arrestin assay relative to control. Format: cell-based. Summed up:
as §1

In test [7] the target is T3, Prolactin-releasing peptide receptor (Homo sapiens) (UniProt P49683).
T3 sequence (whole entry): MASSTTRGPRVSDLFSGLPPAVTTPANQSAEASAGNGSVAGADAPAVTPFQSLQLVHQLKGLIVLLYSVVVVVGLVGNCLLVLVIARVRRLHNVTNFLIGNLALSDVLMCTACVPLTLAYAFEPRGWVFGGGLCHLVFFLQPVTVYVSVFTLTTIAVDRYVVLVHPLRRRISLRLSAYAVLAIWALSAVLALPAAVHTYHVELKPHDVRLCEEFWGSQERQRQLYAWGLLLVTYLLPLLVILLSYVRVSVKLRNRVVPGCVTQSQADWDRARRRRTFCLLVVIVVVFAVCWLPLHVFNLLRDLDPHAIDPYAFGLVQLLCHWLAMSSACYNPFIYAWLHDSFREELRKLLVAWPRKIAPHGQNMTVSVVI
Briefly: Antagonist activity at human Gq-coupled PRLHR expressed in CHOK1 cells assessed as inhibition in prolactin releasing peptide (1 to 31)-induced beta-arrestin 2 recruitment at 20 uM incubated for 30 mins followed by prolactin releasing peptide (1 to 31) addition and measured after 90 or 180 mins by pathhunter beta-arrestin assay relative to control. It is filed as cell-based. The procedure, abridged: as §1

In another test the target is Prostacyclin receptor (Homo sapiens, UniProt P43119). Briefly: Antagonist activity at human Gs-coupled PTGIR assessed as inhibition in beraprost-induced beta-arrestin 2 recruitment at 20 uM incubated for 30 mins followed by beraprost- addition and measured after 90 or 180 mins by pathhunter beta-arrestin assay relative to control. Summed up: as §1
In test [8] the target is Histamine H1 receptor (Homo sapiens) (UniProt P35367). Conditions: at 20 µM.

For `CC[C@]12C=C(C(=O)OC)n3c(c(CCNC(=O)c4ccc(Br)cc4)c4ccccc43)[C@H]1N(C#N)CCC2`, the inhibition (in general, how much of the control response was suppressed) in [1] came to 83%; in test [2] it was 55%; on Cannabinoid receptor 1 it was 69%; on Cannabinoid receptor 2, 51%; in [3], 38%; in test [4], 15%. For the same compound, the inhibition in test [5] came out at 66%; at Orexin receptor type 2 it was 29%; in [6] it was 76%; in [7] it was 82%; on Prostacyclin receptor, 76%; in test [8], 25%.

With `CC[C@]12CCCN(C(=O)c3cccc(Br)c3)CCc3c(n(c4ccccc34)C(=O)C1)[C@@H]2OC`, the inhibition in test [1] was 75%; in test [2] it was 62%; on Cannabinoid receptor 1 it was 90%; on Cannabinoid receptor 2, 100%; in test [3], 80%; in test [4], 6%. Moreover, the inhibition in test [5] was found to be 86%; at Orexin receptor type 2 it was 26%; in test [6], 81%; in test [7], 84%; on Prostacyclin receptor, 97%.
